Amino acid sequences for entries named in this document (tags omitted).
UniProt Q9UK32, whole entry: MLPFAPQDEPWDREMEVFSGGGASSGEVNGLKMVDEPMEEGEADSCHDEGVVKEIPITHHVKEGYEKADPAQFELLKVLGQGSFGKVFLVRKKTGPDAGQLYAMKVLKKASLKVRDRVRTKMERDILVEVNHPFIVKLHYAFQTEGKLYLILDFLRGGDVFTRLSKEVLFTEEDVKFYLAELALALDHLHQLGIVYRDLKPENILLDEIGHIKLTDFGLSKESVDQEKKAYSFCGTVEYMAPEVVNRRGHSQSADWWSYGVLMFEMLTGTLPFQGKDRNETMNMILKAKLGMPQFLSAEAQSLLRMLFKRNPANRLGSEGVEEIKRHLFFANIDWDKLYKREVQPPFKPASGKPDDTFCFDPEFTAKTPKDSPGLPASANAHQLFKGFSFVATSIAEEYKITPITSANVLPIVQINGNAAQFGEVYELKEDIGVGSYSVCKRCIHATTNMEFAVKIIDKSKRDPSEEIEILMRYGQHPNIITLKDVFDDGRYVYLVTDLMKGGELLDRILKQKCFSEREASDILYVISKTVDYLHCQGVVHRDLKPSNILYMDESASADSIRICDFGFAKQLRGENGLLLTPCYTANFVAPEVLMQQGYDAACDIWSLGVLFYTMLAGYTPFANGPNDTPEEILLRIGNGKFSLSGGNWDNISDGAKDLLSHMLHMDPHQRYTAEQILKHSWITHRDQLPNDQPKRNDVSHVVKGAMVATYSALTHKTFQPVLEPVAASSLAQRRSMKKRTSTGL

In BindingDB's records for patent US20250388576 (East China Normal University, 2025):

Molecular target: Ribosomal protein S6 kinase alpha-6 (Homo sapiens, UniProt Q9UK32)
Assay: In Vitro Enzyme Activity Assay

## Cc1cc(=O)n(C2CCNC2)c2nc(Nc3ccc4[nH]ncc4c3)ncc12 (stereo unspecified) [US20250388576, Compound 006]
  IC50: 131 nM
